Test results as given in patent US20250115677A1, “Anti-CEA Antibody Drug Conjugates and Methods of Use” (BeiGene Switzerland GmbH, priority 2022, published 2025).

Columns and labels:
MDA-MB-231 cell line = experiment: ADC direct cellular killing assay, MDA-MB-231; assay type: cell-based, human; details: 6 days incubation
Experimental: At Day 0, cells were harvested with 0.25% Trypsin-EDTA, plated at 5,000 cells/well (MKN45 or Ls174T) or 2,000 cells/well (NCI-H2122 or MDA-MB-231) in 96-well plates (655090, Greiner), and incubated at 37° C., 5% CO2 overnight. At Day 1, ADCs were added (5× dilution) into plates. The cell and ADC mixture was incubated at 37° C., 5% CO2 for 6 days. Survival cell signaling was collected at Day 6 with 100 μL of detection reagent (G7573, Promega®); the signal was read by Tecan Spark*. Data were analyzed by GraphPad Prism 9.0.0. All of the killing concentrations were duplicated or triplicated. Results are presented for each of MKN45 (Table 22 and FIG. 17), NCI-H2122 (Table 23 and FIG. 18), Ls174T (Table 24 and FIG. 19), and MDA-MB0231 (Table 25 and FIG. 20) cells.

[1] = system: MKN-45 (CEA high expression) tumors; experiment: Cell-line derived xenograft (CDX) model, MKN-45; assay type: in vivo, NCG mice; details: MKN-45 CDX
Experimental: (§1) Cell-line derived xenograft (CDX) models using MKN-45 (CEA high expression) (gastric adenocarcinoma), SW-1463 (CEA moderate) (rectal adenocarcinoma), and NCI-H2122 (CEA low) (lung adenocarcinoma) were generated as described below.
(§2) Cells were cultured in RPMI-1640 medium, supplemented with 10% (v/v) fetal bovine serum, 100 U/ml penicillin, and 100 μg/mL streptomycin. On the day of implantation, cells were collected and re-suspended in cold (4° C.) serum-free RPMI-1640 medium. Cell density was adjusted to 2 (MKN-45), 1.5 (SW1463), or 4 (NCI-H2122)×10^7 cells/mL, and the cells were placed on ice prior to inoculation.
(§3) Six- to eight-week-old female mice were purchased and housed in ventilated cages, given food and water ad libitum, and allowed to acclimate for approximately 1 week prior to inoculation. MKN-45, SW-1463, and NCI-H2122 tumors were induced on the right flank by a subcutaneous injection of 2.0 (MKN-45), 3.0 (SW1463), or 8.0 (NCI-H2122)×10^6 cells in NCG, NCG, and Balb/c nude mice, respectively.
(§4) Experiments were performed approximately 2-3 weeks following injection of the cancer cells. For tumor volume measurements, all tumors were measured with calipers and tumor volumes were calculated using the formula V=0.5 (a×b^2), in which “a” is the tumor length and “b” is the tumor width and/or height. […] Animal body weight and tumor volume were measured twice weekly. Data is presented as mean tumor volume f standard error of the mean (SEM). Tumor growth inhibition (TGI) was calculated using the following formula:
(§5) treated Tt=mean tumor volume of a dosing group on Day t treated T0=mean tumor volume of a dosing group on Day 0 vehicle Tt=mean tumor volume of vehicle group on Day t vehicle T0=mean tumor volume of vehicle group on Day 0

[2] = system: SW-1463 (CEA moderate) tumors; experiment: Cell-line derived xenograft (CDX) model, SW-1463; assay type: in vivo, NCG mice; details: SW-1463 CDX
Experimental: as §1, §2, §3, §4, §5

[3] = system: NCI-H2122 (CEA low) tumors; experiment: Cell-line derived xenograft (CDX) model, NCI-H2122; assay type: in vivo, Balb/c nude mice
Experimental: as §1, §2, §3, §4, §5

[4] = system: human patient-derived gastric cancer xenograft; experiment: Human patient-derived gastric cancer xenograft (PDX) model; assay type: in vivo, mice; details: for TGI (%) at T24: treatment Day 24, gastric cancer PDX; for tumor growth inhibition (TGI) rate: treatment day 24
Experimental: as §4, §5
All animals tolerated treatment well with no significant body weight decrease or abnormal clinical observations.

[5] = In vivo DAR quantification by LC-MS; details: single i.v. dose 3 mg/kg, Balb/c nude mice, serum
Experimental: A serum sample (from Balb/c nude mice treated with a single i.v. dose of ADC at 3 mg/k, n=3 per group) was processed into payload-conjugated peptides from the heavy chain (HC) and light chain (LC) of the ADC. DAR mass spectra were analyzed to calculate average DAR of each chain, and average DAR of the intact ADC was calculated using the following formula: DAR=(DAR(LC)+DAR(HC))×2.

[6] = after 336 hours of incubation
[7] = after 336 hours of incubation; remark: listed apart in the source
[8] = Single-dose PK in non-tumor-bearing mice; details: single dose 3 mg/kg i.v., Balb/c nude mice

B1: BGA9962 (conjugate)
heavy: QVQLVQSGAEVKKPGASVKVSCKASGYIFTSYYLHWVRQAPGQGLEWIGYINPQTGKTSYAQKFQGRVTMTRDTSTSTVYMELSSLRSEDTAVYYCAREYGNYNYPLDYWGQGTLVTVSSASTKGPSVFPLAPSSKSTSGGTAALGCLVKDYFPEPVTVSWNSGALTSGVHTFPAVLQSSGLYSLSSVVTVPSSSLGTQTYICNVNHKPSNTKVDKKV[… human IgG1 Fc …]
light: DIQMTQSPSSLSASVGDRVTITCRASENQYGYLAWYQQKPGKVPKLLIYNYKNLVEGVPSRFSGSGSGTDFTLTISSLQPEDVATYYCQHHLGTPYTFGQGTKVEIKRTVAAPSVFIFPPSDEQLKSGTASVVCLLNNFYPREAKVQWKVDNALQSGNSQESVTEQDSKDSTYSLSSTLTLSKADYEKHKVYACEVTHQGLSSPVTKSFNRGEC
MDA-MB-231 cell line
  EC50: 27 nM
[1]; 2 mg/kg i.v.
  anti-tumor efficacy: superior anti-tumor efficacy compared to BGA7650 at 1.3 mg/kg and comparable efficacy to BGA7650 at 4 mg/kg
[1]; 6 mg/kg i.v.
  anti-tumor efficacy: significantly reduced tumor growth
[1]; i.v.
  tumor growth compared to the vehicle group: slowed tumor growth
[2]; 2 mg/kg i.v.
  anti-tumor efficacy: superior anti-tumor efficacy compared to BGA7650 at 1.3 mg/kg and comparable efficacy to BGA7650 at 4 mg/kg
[2]; 6 mg/kg i.v.
  anti-tumor efficacy: significantly reduced tumor growth
[2]; i.v.
  tumor growth compared to the vehicle group: slowed tumor growth
[3]; 2 mg/kg i.v.
  anti-tumor efficacy: superior anti-tumor efficacy compared to BGA7650 at 1.3 mg/kg and comparable efficacy to BGA7650 at 4 mg/kg
[3]; 6 mg/kg i.v.
  anti-tumor efficacy: significantly reduced tumor growth
[3]; i.v.
  tumor growth compared to the vehicle group: slowed tumor growth
[4]; 2 mg/kg single dose
  TGI (%) at T24: 106%
[4]; 6 mg/kg single dose
  TGI (%) at T24: 107%
[4]; single dose 2 mg/kg
  tumor growth inhibition (TGI) rate: 106%
[4]; single dose 6 mg/kg
  tumor growth inhibition (TGI) rate: 107%
[5]
  in vivo DAR over time: 8
[6]
  stability in mouse plasma (DAR change): no DAR change
[7]
  stability in human plasma (DAR change): no DAR change
[8]
  separation between TAb (total antibody) and ADC concentration; DAR over time: stable DAR over time
  serum-free payload in plasma: lower serum-free payload in plasma compared to BGA7650
[8]; n=3
  pharmacokinetic (PK) profile: strong pharmacokinetic (PK) profile

B2: BGA0084 (conjugate)
heavy: QVQLVQSGAEVKKPGASVKVSCKASGYIFTSYYLHWVRQAPGQGLEWIGYINPQTGKTSYAQKFQGRVTMTRDTSTSTVYMELSSLRSEDTAVYYCAREYGNYNYPLDYWGQGTLVTVSSASTKGPSVFPLAPSSKSTSGGTAALGCLVKDYFPEPVTVSWNSGALTSGVHTFPAVLQSSGLYSLSSVVTVPSSSLGTQTYICNVNHKPSNTKVDKKV[… human IgG1 Fc …]
light: DIQMTQSPSSLSASVGDRVTITCRASENQYGYLAWYQQKPGKVPKLLIYNYKNLVEGVPSRFSGSGSGTDFTLTISSLQPEDVATYYCQHHLGTPYTFGQGTKVEIKRTVAAPSVFIFPPSDEQLKSGTASVVCLLNNFYPREAKVQWKVDNALQSGNSQESVTEQDSKDSTYSLSSTLTLSKADYEKHKVYACEVTHQGLSSPVTKSFNRGEC
MDA-MB-231 cell line
  EC50: 25 nM

B3: BGA7413 (conjugate)
heavy: QVQLVQSGAEVKKPGASVKVSCKASGYIFTSYYLHWVRQAPGQGLEWIGYINPQTGKTSYAQKFQGRVTMTRDTSTSTVYMELSSLRSEDTAVYYCAREYGNYNYPLDYWGQGTLVTVSSASTKGPSVFPLAPSSKSTSGGTAALGCLVKDYFPEPVTVSWNSGALTSGVHTFPAVLQSSGLYSLSSVVTVPSSSLGTQTYICNVNHKPSNTKVDKKV[… human IgG1 Fc …]
light: DIQMTQSPSSLSASVGDRVTITCRASENQYGYLAWYQQKPGKVPKLLIYNYKNLVEGVPSRFSGSGSGTDFTLTISSLQPEDVATYYCQHHLGTPYTFGQGTKVEIKRTVAAPSVFIFPPSDEQLKSGTASVVCLLNNFYPREAKVQWKVDNALQSGNSQESVTEQDSKDSTYSLSSTLTLSKADYEKHKVYACEVTHQGLSSPVTKSFNRGEC
MDA-MB-231 cell line
  EC50: 28 nM

B4: BGA2490 (conjugate)
heavy: QVQLVQSGAEVKKPGASVKVSCKASGYIFTSYYLHWVRQAPGQGLEWIGYINPQTGKTSYAQKFQGRVTMTRDTSTSTVYMELSSLRSEDTAVYYCAREYGNYNYPLDYWGQGTLVTVSSASTKGPSVFPLAPSSKSTSGGTAALGCLVKDYFPEPVTVSWNSGALTSGVHTFPAVLQSSGLYSLSSVVTVPSSSLGTQTYICNVNHKPSNTKVDKKV[… human IgG1 Fc …]
light: DIQMTQSPSSLSASVGDRVTITCRASENQYGYLAWYQQKPGKVPKLLIYNYKNLVEGVPSRFSGSGSGTDFTLTISSLQPEDVATYYCQHHLGTPYTFGQGTKVEIKRTVAAPSVFIFPPSDEQLKSGTASVVCLLNNFYPREAKVQWKVDNALQSGNSQESVTEQDSKDSTYSLSSTLTLSKADYEKHKVYACEVTHQGLSSPVTKSFNRGEC
MDA-MB-231 cell line
  EC50: 21 nM

B5: BGA8357 (conjugate)
heavy: QVQLVQSGAEVKKPGASVKVSCKASGYIFTSYYLHWVRQAPGQGLEWIGYINPQTGKTSYAQKFQGRVTMTRDTSTSTVYMELSSLRSEDTAVYYCAREYGNYNYPLDYWGQGTLVTVSSASTKGPSVFPLAPSSKSTSGGTAALGCLVKDYFPEPVTVSWNSGALTSGVHTFPAVLQSSGLYSLSSVVTVPSSSLGTQTYICNVNHKPSNTKVDKKV[… human IgG1 Fc …]
light: DIQMTQSPSSLSASVGDRVTITCRASENQYGYLAWYQQKPGKVPKLLIYNYKNLVEGVPSRFSGSGSGTDFTLTISSLQPEDVATYYCQHHLGTPYTFGQGTKVEIKRTVAAPSVFIFPPSDEQLKSGTASVVCLLNNFYPREAKVQWKVDNALQSGNSQESVTEQDSKDSTYSLSSTLTLSKADYEKHKVYACEVTHQGLSSPVTKSFNRGEC
MDA-MB-231 cell line
  EC50: 26 nM
